Measured values published in US12331044B2, “Inhibitors of histone deacetylase useful for the treatment or prevention of HIV infection” (Merck Sharp & Dohme LLC, priority 2018, dated 2025).

The chains behind the UniProt entries cited, without tags or fusion partners. Where a name states a change or a piece, a line headed by the entry shows the natural chain unless it says otherwise.
UniProt Q92769, whole entry: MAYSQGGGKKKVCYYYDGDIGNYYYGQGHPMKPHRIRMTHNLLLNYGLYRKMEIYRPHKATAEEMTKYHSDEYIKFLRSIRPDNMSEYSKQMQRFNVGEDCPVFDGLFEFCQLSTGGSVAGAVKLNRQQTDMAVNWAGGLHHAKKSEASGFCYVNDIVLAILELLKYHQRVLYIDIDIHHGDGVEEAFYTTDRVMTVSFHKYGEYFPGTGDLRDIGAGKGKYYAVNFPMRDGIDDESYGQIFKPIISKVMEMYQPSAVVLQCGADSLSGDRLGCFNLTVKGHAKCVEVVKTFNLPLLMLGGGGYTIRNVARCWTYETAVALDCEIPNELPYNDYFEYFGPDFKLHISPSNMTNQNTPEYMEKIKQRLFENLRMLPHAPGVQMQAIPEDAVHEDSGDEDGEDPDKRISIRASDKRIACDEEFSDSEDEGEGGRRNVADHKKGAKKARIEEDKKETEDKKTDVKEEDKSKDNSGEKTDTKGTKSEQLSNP
UniProt Q9BY41: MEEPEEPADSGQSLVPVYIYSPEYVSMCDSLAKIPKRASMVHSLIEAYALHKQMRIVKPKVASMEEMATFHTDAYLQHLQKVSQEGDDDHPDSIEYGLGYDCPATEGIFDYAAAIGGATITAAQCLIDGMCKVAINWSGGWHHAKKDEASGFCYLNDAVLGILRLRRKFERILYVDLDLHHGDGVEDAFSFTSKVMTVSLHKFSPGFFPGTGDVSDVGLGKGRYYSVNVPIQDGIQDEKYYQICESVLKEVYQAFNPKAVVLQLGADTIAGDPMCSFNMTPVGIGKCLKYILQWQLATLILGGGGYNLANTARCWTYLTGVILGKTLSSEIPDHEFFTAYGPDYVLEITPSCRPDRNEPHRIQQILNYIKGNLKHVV
UniProt Q13547, whole entry: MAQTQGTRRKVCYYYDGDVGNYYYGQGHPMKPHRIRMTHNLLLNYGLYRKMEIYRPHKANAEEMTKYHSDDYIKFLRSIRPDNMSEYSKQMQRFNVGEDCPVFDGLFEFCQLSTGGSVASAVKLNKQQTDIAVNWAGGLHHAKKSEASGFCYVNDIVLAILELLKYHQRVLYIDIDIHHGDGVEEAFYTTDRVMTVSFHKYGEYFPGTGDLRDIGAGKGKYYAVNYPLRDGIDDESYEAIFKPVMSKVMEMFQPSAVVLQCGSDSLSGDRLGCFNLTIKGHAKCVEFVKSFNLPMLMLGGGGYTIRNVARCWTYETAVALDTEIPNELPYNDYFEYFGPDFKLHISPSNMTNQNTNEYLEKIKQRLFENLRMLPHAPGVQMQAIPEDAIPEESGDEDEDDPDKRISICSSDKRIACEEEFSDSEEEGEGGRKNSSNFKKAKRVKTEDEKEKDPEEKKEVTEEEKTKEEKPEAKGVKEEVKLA
UniProt O15379: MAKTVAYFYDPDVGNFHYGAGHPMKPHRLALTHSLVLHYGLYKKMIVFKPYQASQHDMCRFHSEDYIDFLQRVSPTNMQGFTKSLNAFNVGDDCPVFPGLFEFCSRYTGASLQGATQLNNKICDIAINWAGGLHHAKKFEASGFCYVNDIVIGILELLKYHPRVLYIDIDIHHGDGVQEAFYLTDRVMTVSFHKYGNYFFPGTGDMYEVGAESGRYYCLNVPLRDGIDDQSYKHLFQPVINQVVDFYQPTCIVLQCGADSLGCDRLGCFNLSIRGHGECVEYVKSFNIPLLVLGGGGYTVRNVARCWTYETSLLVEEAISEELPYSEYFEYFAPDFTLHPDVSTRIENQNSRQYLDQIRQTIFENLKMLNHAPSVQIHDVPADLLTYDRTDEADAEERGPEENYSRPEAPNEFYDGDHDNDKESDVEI

Legend:
human HDAC2 = human HDAC2 (Homo sapiens (Human), UniProt Q92769); test: HDAC2 inhibition assay (modified FLUOR DE LYS, 384-well); assay type: biochemical
human HDAC8 = human HDAC8 (Homo sapiens (Human), UniProt Q9BY41); test: HDAC8 inhibition assay (modified FLUOR DE LYS, 384-well); assay type: biochemical; conditions: […] enzyme, 200 μM substrate BML-KI178, 3 h pre-incubation
human HDAC1 = human HDAC1 (Homo sapiens (Human), UniProt Q13547)
[1] = molecular target: human HDAC3/SMRT heterodimer (Homo sapiens (Human), UniProt O15379); test: biochemical

| SMILES | IC50 (human HDAC2) [nM] | IC50 (human HDAC8) [nM] | IC50 (human HDAC1) [nM] | IC50 [1] [nM] |
| --- | --- | --- | --- | --- |
| N[C@@H](CCCCCC(=O)c1ccon1)c1ncc(-c2ccccc2F)[nH]1 [Example 37, (S)-7-amino-7-(5-(2-fluorophenyl)-1H-imidazol-2-yl)-1-(isoxazol-3-yl)heptan-1-one] | 8.5 | 280 | 1.4 | – |
| Cc1ccc2cc(-c3c[nH]c([C@H](CCCCCC(=O)c4ncco4)NC4CCN(C)CC4)n3)ccc2n1 [Example 78, (S)-7-((1-methylpiperidin-4-yl)amino)-7-(5-(2-methylquinolin-6-yl)-1H-imidazol-2-yl)-1-(oxazol-2-yl)heptan-1-one] | – | – | – | 2.5 |
